Sequences of proteins named here, by UniProt entry; tags and fusion partners are left off. Residues count along the entry.
UniProt Q9NZQ7, 19-290 limits assumed: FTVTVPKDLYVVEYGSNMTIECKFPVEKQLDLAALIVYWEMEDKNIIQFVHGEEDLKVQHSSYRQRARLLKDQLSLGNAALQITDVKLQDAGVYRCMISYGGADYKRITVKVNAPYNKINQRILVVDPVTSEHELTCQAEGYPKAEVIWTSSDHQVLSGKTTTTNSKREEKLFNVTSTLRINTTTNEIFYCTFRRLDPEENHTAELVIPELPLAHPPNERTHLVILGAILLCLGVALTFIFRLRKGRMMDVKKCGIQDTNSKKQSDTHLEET

According to patent US12583839B2, “PD-L1 antagonist compound” (ADLAI NORTYE BIOPHARMA CO., LTD., priority 2019, dated 2026):

target: PD-1/PD-L1 (Homo sapiens, UniProt Q9NZQ7); assay: Detection of biological activity of PD-1/PD-L1 signaling inhibition at the cellular level (NFAT luciferase reporter, PD-1/NFAT-Reporter-Jurkat cells co-cultured with TCR activator/PD-L1-CHO cells); conditions: read-out: EC50 NFAT Luciferase; PD-1/NFAT-Reporter-Jurkat + TCR activator/PD-L1-CHO co-culture, 6 hours; Atezolizumab as positive control
Source text: Detection of Biological Activity of PD-1/PD-L1 Signaling Inhibition at the Cellular Level
This detection method is used for evaluating the biological activity of the compounds described in the present invention at the cellular level.
This detection method uses the luciferase reporter gene method to detect the biological activity of the compound on the inhibition of PD-1/PD-L1 signal at the cellular level. PD-1/NFAT—Reporter—Jurkat cells stably express human PD-1 and express the luciferase reporter gene regulated by NFAT elements; TCR activator/PD-L1-CHO cells stably express human PD-L1 and TCR activator elements. When the two cell lines were co-cultured, the binding of PD-1/PD-L1 inhibited the TCR signaling pathway, thereby inhibiting the expression of the downstream NFAT-controlled luciferase reporter gene. When PD-1/PD-L1 antibody or inhibitor is added, this inhibitory effect is reversed and luciferase is expressed, so that the effect of PD-1/PD-L1 inhibitor on luciferase activity can be detected.
PD-1/NFAT—Reporter—Jurkat cell (Cat: 60535) and TCR activator/PD-L1-CHO cell (Cat: 60536) were purchased from BPS Bioscience. Anti-human PD-L1 antibody (Atezolizumab, Cat: A2004) was purchased from Selleck; luciferase reporter gene expression detection kit (ONE-Glo™ Luciferase Assay System, Cat: E6120) was purchased from Promega; multifunction plate reader (SpectraMax i3x) was purchased from Molecular Devices.
The PD-1/NFAT—Reporter—Jurkat cells and TCR activator/PD-L1-CHO cells were cultured according to the routine cell culture protocol.
TCR activator/PD-L1-CHO cells were harvested and seeded into a 96-well culture plate at 35,000 cells/well in a medium volume of 100 μl and incubated overnight at 37° C. The next day, the medium was discarded, compound was added and incubated for 30 minutes, while a solvent control (dimethyl sulfoxide, DMSO, final concentration of 0.1%) and PD-L1 antibody (Atezolizumab, final concentration of about 10 nM) as positive controls were set. PD-1/NFAT-reporter-Jurkat cells were then added. After culturing for 6 hours, the luciferase activity was detected according to the instructions of the luciferase detection reagent.
Using PD-L1 antibody as a positive control, calculate the inhibition rate of PD-1/PD-L1 binding of the test compound (%)=(chemiluminescence value of compound treated wells/average value of chemiluminescence value of solvent control wells−1)/(average value of chemiluminescence value of PD-L1 antibody well/average value of chemiluminescence value of solvent control well−1)×100%.
According to the above detection method, the compounds of the present invention were evaluated for their biological activity at the cellular level, and the activity results are shown in the following table.

SMILES | EC50 [nM]
COc1cc(-c2cccc(-c3cccc4c3cnn4Cc3cc(OC)c(CN(C4CC4)[C@H]4CC[C@@H](C(=O)O)CC4)cc3Cl)c2Cl)ccc1CNC[C@@H]1CCC(=O)N1 | 520
COc1cc(-c2cccc(-c3cccc4c3cnn4Cc3cc(OC)c(CN(C)C45CCC(C(=O)O)(CC4)CC5)cc3Cl)c2C)ncc1CNC[C@@H]1CCC(=O)N1 | 98
COc1cc(Cn2ncc3c(-c4cccc(-c5ccc(CNC[C@@H]6CCC(=O)N6)cc5)c4Cl)cccc32)c(Cl)cc1CN1CC[C@H](C(=O)O)C1 | 488
COc1cc(Cn2ncc3c(-c4cccc(-c5cnc(CNC[C@@H]6CCC(=O)N6)c(OC)c5)c4Cl)cccc32)c(Cl)cc1CN(C)C12CCC(C(=O)O)(CC1)CC2 | 133
COc1cc(Cn2ncc3c(-c4cccc(-c5cc(F)c(CNC[C@@H]6CCC(=O)N6)c(OC)c5)c4Cl)cccc32)c(C#N)cc1CN(C)[C@H]1CC[C@H](C(=O)O)CC1 | 15
